Test results: paper PMC10046313, “Novel scFv against Notch Ligand JAG1 Suitable for Development of Cell Therapies toward JAG1-Positive Tumors” (Biomolecules, 2023)
Numbering of substitutions follows the chain as printed.

Amino acid sequences for entries named in this document (tags omitted). Residues count along the entry.
UniProt O00548, 18-723: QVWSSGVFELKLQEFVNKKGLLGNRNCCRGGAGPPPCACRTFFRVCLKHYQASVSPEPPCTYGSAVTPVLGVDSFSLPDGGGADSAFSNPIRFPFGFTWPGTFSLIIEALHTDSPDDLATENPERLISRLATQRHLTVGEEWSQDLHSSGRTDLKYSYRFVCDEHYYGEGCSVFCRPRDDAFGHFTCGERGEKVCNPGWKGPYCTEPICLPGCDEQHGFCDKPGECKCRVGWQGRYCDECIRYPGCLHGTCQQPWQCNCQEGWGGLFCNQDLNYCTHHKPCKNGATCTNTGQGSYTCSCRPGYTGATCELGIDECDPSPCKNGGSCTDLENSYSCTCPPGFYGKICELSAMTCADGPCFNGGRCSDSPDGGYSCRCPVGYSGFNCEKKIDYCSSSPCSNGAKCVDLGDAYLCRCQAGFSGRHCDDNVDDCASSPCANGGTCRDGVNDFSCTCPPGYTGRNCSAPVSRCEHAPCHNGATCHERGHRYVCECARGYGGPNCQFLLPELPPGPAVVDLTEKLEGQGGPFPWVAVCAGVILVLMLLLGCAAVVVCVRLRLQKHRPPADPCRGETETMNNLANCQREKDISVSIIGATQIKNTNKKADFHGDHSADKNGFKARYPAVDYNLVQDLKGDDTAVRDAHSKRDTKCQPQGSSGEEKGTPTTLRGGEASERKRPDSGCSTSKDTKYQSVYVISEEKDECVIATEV
UniProt Q9Y219, 24-1238: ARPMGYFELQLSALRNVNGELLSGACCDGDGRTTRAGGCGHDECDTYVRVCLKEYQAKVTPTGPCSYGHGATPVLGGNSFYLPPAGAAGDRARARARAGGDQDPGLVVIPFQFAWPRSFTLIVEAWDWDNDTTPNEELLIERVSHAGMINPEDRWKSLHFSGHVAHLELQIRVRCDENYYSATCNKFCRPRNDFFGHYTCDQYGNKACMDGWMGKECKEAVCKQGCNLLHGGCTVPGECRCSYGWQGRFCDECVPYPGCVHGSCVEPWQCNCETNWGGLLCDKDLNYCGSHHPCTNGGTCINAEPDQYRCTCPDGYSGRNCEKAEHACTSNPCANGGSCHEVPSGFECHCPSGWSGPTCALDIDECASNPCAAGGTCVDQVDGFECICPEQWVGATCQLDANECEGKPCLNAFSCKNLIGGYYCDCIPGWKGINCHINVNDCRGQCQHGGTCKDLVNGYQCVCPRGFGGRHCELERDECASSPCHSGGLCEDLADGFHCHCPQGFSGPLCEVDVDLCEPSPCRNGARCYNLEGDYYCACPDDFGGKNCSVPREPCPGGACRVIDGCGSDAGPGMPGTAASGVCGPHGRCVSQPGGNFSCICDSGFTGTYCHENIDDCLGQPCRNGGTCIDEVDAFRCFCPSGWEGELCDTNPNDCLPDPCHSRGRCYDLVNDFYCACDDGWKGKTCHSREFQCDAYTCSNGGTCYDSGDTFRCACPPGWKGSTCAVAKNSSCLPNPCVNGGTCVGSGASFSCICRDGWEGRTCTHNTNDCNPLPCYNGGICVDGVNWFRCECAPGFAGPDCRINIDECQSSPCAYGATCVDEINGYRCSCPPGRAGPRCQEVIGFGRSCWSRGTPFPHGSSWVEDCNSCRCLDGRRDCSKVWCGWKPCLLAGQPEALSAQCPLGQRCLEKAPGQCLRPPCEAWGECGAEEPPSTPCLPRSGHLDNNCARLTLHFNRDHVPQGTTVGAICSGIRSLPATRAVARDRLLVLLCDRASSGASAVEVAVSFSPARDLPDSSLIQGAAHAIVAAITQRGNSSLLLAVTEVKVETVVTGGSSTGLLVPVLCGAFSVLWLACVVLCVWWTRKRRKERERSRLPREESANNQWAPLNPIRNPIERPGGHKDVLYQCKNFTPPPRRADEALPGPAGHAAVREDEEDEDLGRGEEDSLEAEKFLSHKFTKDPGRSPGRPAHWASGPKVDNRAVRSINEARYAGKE
UniProt Q9QXX0, 34-1218: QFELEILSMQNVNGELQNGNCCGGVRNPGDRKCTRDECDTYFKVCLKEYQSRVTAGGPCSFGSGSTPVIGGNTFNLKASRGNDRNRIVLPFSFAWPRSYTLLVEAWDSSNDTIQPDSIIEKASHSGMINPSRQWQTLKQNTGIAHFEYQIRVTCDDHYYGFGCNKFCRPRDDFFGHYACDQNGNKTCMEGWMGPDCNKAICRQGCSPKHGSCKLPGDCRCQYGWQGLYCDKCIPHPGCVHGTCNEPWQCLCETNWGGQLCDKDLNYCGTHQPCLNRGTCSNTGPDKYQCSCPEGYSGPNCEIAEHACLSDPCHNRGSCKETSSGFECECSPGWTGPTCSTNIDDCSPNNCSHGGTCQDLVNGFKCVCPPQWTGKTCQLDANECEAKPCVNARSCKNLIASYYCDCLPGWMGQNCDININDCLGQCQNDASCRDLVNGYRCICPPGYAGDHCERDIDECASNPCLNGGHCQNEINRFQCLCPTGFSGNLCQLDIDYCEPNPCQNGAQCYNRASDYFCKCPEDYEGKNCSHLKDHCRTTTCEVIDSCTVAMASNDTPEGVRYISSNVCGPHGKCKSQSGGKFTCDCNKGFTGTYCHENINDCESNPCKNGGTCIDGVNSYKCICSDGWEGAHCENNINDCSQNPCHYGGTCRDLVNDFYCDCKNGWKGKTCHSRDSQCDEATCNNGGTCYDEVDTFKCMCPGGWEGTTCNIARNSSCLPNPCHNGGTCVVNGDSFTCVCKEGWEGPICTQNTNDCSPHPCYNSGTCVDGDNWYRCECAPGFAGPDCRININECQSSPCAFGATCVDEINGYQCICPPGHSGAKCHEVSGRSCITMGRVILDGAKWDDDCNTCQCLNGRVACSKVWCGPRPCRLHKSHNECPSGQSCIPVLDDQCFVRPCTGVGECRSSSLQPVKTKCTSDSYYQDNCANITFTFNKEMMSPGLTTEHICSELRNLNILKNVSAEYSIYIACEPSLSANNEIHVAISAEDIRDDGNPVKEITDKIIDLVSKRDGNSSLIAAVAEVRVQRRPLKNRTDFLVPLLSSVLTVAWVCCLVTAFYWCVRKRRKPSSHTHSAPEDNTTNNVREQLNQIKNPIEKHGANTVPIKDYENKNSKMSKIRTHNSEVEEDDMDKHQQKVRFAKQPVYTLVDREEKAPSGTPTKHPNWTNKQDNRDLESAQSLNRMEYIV
UniProt Q9NR61, 27-685: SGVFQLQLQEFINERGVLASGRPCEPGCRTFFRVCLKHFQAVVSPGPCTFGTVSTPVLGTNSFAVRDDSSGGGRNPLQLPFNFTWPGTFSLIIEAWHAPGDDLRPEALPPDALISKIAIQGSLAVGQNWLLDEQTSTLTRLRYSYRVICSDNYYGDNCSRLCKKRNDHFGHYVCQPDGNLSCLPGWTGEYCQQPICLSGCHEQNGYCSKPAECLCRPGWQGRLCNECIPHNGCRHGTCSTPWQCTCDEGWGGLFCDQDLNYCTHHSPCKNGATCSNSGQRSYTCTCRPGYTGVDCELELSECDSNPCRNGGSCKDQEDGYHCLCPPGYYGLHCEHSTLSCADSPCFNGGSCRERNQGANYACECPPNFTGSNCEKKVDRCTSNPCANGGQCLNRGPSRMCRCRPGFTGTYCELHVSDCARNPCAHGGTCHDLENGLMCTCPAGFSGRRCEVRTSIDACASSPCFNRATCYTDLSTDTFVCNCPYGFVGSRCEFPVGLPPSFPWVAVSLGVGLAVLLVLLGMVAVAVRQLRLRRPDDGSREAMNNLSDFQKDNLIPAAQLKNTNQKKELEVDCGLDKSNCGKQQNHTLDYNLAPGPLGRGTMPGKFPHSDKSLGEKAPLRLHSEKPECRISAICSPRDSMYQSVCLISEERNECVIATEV
UniProt Q9NYJ7, 27-618: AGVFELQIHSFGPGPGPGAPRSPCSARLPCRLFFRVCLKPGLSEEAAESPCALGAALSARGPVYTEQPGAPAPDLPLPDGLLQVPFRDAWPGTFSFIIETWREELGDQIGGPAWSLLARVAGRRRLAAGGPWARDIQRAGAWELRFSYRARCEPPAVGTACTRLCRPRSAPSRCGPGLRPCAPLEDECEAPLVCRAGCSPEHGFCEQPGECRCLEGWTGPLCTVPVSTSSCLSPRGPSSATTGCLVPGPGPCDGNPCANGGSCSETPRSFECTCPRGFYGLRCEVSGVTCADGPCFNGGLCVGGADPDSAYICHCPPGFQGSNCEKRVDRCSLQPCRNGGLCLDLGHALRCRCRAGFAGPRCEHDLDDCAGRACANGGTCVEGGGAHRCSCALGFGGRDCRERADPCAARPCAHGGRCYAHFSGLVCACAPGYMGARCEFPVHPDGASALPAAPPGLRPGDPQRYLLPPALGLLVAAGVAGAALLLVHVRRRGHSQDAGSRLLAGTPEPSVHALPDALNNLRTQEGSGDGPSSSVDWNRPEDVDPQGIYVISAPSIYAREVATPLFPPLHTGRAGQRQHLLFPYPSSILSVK
UniProt P78504, 34-1067: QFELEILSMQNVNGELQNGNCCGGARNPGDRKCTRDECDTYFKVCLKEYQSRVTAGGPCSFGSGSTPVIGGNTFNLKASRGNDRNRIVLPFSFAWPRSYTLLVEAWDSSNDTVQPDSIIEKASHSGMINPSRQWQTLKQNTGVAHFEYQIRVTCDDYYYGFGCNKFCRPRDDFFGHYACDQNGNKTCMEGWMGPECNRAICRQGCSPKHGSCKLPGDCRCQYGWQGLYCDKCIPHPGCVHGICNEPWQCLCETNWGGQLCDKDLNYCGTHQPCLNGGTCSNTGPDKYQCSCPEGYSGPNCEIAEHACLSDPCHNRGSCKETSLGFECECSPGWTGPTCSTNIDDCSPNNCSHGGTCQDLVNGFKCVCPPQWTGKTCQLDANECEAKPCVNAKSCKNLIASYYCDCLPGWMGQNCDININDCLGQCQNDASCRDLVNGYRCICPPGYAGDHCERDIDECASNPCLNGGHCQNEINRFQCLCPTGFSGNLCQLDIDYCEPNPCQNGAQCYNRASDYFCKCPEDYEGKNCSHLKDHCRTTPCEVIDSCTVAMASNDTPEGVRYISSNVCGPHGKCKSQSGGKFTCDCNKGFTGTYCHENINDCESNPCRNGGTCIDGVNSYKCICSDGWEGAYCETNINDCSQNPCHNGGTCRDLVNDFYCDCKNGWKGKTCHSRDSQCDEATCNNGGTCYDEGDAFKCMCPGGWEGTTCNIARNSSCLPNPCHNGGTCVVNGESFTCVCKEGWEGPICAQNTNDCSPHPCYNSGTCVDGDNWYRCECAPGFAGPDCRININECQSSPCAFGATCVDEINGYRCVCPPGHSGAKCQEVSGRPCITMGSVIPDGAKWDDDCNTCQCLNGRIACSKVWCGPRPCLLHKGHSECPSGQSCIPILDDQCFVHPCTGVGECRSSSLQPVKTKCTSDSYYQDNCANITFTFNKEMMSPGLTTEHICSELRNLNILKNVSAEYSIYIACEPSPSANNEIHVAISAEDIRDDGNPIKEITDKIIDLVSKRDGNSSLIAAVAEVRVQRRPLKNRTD
UniProt P78504, 34-1218: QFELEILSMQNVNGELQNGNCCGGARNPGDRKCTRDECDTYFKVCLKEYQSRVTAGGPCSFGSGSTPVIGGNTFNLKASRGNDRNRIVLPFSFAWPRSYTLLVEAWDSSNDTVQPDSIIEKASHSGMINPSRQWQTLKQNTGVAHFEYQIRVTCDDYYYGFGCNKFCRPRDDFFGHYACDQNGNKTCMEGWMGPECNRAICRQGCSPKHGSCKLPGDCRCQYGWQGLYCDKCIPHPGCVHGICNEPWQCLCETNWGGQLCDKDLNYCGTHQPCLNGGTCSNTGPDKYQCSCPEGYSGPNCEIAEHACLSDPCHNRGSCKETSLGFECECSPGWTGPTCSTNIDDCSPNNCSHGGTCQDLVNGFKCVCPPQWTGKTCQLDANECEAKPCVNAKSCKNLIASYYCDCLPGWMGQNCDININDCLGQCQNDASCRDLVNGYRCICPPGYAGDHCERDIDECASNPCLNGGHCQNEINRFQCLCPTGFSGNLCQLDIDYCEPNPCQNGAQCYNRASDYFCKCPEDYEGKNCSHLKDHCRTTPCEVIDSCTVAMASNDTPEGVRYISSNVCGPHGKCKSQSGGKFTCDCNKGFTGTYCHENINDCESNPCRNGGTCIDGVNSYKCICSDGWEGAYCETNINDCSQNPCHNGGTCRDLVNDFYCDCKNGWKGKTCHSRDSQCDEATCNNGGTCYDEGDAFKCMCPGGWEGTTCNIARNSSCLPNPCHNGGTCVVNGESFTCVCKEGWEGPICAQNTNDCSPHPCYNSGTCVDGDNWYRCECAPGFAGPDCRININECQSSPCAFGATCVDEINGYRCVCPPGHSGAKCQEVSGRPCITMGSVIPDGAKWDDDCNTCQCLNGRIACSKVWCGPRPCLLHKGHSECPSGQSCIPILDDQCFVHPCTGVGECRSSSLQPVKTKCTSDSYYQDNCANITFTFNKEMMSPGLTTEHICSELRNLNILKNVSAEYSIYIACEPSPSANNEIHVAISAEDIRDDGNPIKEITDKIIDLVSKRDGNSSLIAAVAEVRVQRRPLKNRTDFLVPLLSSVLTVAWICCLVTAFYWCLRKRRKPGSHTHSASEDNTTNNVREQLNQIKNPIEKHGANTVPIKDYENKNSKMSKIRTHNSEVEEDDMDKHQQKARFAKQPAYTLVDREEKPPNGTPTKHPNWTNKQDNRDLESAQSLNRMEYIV

What was measured:
recombinant human DLL1 = biological target: T1, recombinant human DLL1 (Homo sapiens, UniProt O00548); assay: ELISA; antigens immobilised in 96-well plates (5 µg/mL in PBS, 16 h, 4 °C); serial dilutions of Abs starting from 200 µg/mL; details: both partners purified
T1 construct: DLL1, human, recombinant; also called rhDLL1

recombinant human JAG2 = biological target: T2, recombinant human JAG2 (Homo sapiens, UniProt Q9Y219); assay: as above; details: both partners purified
T2 construct: JAG2, human, recombinant; also called rhJAG2

recombinant murine JAG1 = biological target: T3, recombinant murine JAG1 (Mus musculus, UniProt Q9QXX0); assay: as above; details: both partners purified
T3 construct: JAG1, murine, recombinant; also called rmJAG1

recombinant human DLL4 = biological target: T4, recombinant human DLL4 (Homo sapiens, UniProt Q9NR61); assay: as above; details: both partners purified
T4 construct: DLL4, human, recombinant; also called rhDLL4

recombinant human DLL3 = biological target: T5, recombinant human DLL3 (Homo sapiens, UniProt Q9NYJ7); assay: as above; details: both partners purified
T5 construct: DLL3, human, recombinant; also called rhDLL3

[1] = biological target: T6, recombinant human JAG1-ECD-Fc (Homo sapiens, UniProt P78504); assay: as above; details: both partners purified
T6 construct: JAG1, human; the complete extracellular domain; also called rhJAG1-ECD-Fc

[2] = biological target: T6, recombinant human JAG1-ECD-Fc; assay: SPR; rhJAG1-ECD-Fc with anti-JAG1 Abs; details in the Supplementary Information; details: both partners purified
[3] = biological target: T7, endogenous JAG1 on HepG2 cells (Homo sapiens (HepG2), UniProt P78504); assay: flow cytometry on cells; dose-response binding of Abs to CHO-k1/rhJAG1, CHO-k1/control and HepG2 cells; ice-cold PBS with 3% FBS; details: one partner purified
T7 construct: JAG1, endogenous on human HepG2 cells (parental and HepG2/Ctr^ko); also called endogenous hJAG1; HepG2/Ctr^ko (JAG1^+); source: endogenous, on HepG2 cells

B1: anti-JAG1 monoclonal Ab J1.B5 (antibody, V domains shown)
VH: EVQLLESGGGLVQPGGSLRLSCAASGFTFSSYAMSWVRQAPGKGLEWVSTIAGSGTATDYADSVKGRFTISRDNSKNTLYLQMNSLRAEDTAVYYCAKDTYAFDYWGQGTLVTVSS
VL: DIQMTQSPSSLSASVGDRVTITCRASQSISSYLNWYQQKPGKAPKLLIYAASYLQSGVPSRFSGSGSGTDFTLTISSLQPEDFATYYCQQAYSAPSTFGQGTKVEIK
binding result (recombinant human DLL1): no binding (tested: starting from 200 µg/mL) | binding result (recombinant human JAG2): no binding (tested: starting from 200 µg/mL) | binding result (recombinant murine JAG1): binds | binding result (recombinant human DLL4): no binding (tested: starting from 200 µg/mL) | binding result (recombinant human DLL3): no binding (tested: starting from 200 µg/mL) | EC50 [1]: 77.8 nM | Kd [2]: 52.2 nM | EC50 [3]: 336 nM

B2: anti-JAG1 monoclonal Ab J1.F1 (antibody, V domains shown)
VH: B1 VH with A52S, G53T, T56D, A57Y, D59T, D99S, Y101A, A102Y
VL: B1 VL with Y53A, S93Y, A94D, S96T
binding result (recombinant human DLL1): no binding (tested: starting from 200 µg/mL) | binding result (recombinant human JAG2): no binding (tested: starting from 200 µg/mL) | binding result (recombinant murine JAG1): no binding (tested: starting from 200 µg/mL) | binding result (recombinant human DLL4): no binding (tested: starting from 200 µg/mL) | binding result (recombinant human DLL3): no binding (tested: starting from 200 µg/mL) | EC50 [1]: 13.5 nM | Kd [2]: 18.6 nM | EC50 [3]: 5.74 nM
